Results reported in paper PMC5340007 (BMC Cancer, 2017).

Assay: Plasma pharmacokinetics, each drug alone and in combination
Details: selumetinib + dacarbazine arm, dosed in combination, selumetinib 50 mg (N = 7), geometric mean (% CV)

## Cn1cnc2c(F)c(Nc3ccc(Br)cc3Cl)c(C(=O)NOCCO)cc21 [Selumetinib]
  AUC(0–12): 2822 (42.48) ng•h/mL
